Laboratory results taken from patent US9464084B2, “P2X7 modulators” (Janssen Pharmaceutica NV, priority 2013, dated 2016).
pIC50, pKi: −log10 of the molar value.

Amino acid sequences for entries named in this document (tags omitted). A change or cut given only in a name is not applied to a line headed by its entry.
UniProt Q64663: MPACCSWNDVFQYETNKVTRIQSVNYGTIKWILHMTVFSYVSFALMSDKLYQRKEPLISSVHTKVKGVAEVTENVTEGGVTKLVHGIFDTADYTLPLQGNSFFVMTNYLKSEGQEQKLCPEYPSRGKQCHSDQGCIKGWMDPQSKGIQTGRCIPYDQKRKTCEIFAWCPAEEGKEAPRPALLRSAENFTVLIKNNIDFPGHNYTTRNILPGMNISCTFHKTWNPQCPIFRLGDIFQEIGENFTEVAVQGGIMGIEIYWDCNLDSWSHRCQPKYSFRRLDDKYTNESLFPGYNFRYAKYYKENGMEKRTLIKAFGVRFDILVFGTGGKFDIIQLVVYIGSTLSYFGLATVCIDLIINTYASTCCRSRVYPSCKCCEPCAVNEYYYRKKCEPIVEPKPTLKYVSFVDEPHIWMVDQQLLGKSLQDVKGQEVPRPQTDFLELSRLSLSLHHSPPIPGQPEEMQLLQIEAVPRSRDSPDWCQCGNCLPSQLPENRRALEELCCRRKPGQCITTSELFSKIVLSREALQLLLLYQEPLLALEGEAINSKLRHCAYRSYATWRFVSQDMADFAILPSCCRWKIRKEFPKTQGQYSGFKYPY
UniProt Q99572: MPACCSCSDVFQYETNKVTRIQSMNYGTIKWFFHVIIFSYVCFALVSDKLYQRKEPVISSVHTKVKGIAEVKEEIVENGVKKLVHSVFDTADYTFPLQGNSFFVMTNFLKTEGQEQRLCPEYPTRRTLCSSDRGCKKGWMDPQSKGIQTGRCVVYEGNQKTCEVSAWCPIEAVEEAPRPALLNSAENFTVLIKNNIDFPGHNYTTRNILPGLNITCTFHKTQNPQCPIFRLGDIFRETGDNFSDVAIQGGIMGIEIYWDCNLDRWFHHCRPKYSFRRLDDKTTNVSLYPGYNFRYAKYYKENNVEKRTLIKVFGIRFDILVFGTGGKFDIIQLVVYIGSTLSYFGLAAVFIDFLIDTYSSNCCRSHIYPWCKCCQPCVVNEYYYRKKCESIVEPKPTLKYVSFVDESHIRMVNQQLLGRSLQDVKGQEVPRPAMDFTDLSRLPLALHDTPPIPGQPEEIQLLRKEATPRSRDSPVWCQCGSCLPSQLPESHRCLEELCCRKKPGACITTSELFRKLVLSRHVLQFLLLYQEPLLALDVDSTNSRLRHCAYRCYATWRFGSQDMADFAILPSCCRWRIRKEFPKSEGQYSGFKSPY

Legend:
rat P2X7 = rat P2X7 (Rattus norvegicus (Rat), UniProt Q64663); assay: Ca2+ flux (FLIPR) in 1321N1 cells expressing recombinant rat P2X7 channel; format: cell-based; conditions: 250 μM BzATP;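 further: Calcium-4 dye fluorescence change read 180 s after agonist addition, following 30 min cell preincubation with test compound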
P2X7 [1] = biological target: T1, P2X7 (Homo sapiens (Human), UniProt Q99572); assay: Ca2+ flux (FLIPR) in 1321N1 cells expressing recombinant human P2X7 channel; format: cell-based; conditions: 250 μM BzATP;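 further: Calcium-4 dye-loaded cells exposed to compound for 30 min before agonist addition, fluorescence change read 180 s after agonist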
P2X7 [2] = biological target: T1, P2X7; assay: Radioligand binding, tritiated A-804598, human P2X7-1321N1 cell membranes; conditions: 1 hour at 4° C.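 Further: ki obtained from the binding IC50 after correction for tracer concentration and tracer affinity.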

pIC50 (rat P2X7) | pIC50 (P2X7 [1]) | pKi (P2X7 [2]) | SMILES
4.76 | 5.60 | – | C[C@H]1c2nnn(-c3cc(F)ccn3)c2CCN1C(=O)c1cccc(C(F)(F)F)c1Cl (single isomer, unassigned) [Example 149, (S*)-(2-Chloro-3-(trifluoromethyl)phenyl)(1-(4-fluoropyridin-2-yl)-4-methyl-6,7-dihydro-1H-[1,2,3]triazolo[4,5-c]pyridin-5(4H)-yl)methanone]
5.70 | 6.01 | – | COc1ccnc(-n2nnc3c2CCN(C(=O)c2cccc(C(F)(F)F)c2Cl)[C@@H]3C)c1 (single isomer, unassigned) [Example 152, (S*)-(2-Chloro-3-(trifluoromethyl)phenyl)(1-(4-methoxypyridin-2-yl)-4-methyl-6,7-dihydro-1H-[1,2,3]triazolo[4,5-c]pyridin-5(4H)-yl)methanone]
6.93 | 8.29 | – | C[C@H]1c2nnn(-c3ncc(F)cn3)c2CCN1C(=O)c1cccc(C(F)(F)F)c1F (single isomer, unassigned) [Example 178, (S*)-(2-fluoro-3-(trifluoromethyl)phenyl)(1-(5-fluoropyrimidin-2-yl)-4-methyl-6,7-dihydro-1H-[1,2,3]triazolo[4,5-c]pyridin-5(4H)-yl)methanone]
7.71 | – | – | Cc1ccnc(-n2nnc3c2CCN(C(=O)c2cccc(C(F)(F)F)c2Cl)[C@@H]3C)c1 (single isomer, unassigned) [Example 185, (R*)-(2-chloro-3-(trifluoromethyl)phenyl)(4-methyl-1-(4-methylpyridin-2-yl)-6,7-dihydro-1H-[1,2,3]triazolo[4,5-c]pyridin-5(4H)-yl)methanone]
4.93 | – | – | Cc1ccnc(-n2nnc3c2CCN(C(=O)c2cccc(C(F)(F)F)c2Cl)[C@H]3C)c1 (single isomer, unassigned) [Example 186, (S*)-(2-chloro-3-(trifluoromethyl)phenyl)(4-methyl-1-(4-methylpyridin-2-yl)-6,7-dihydro-1H-[1,2,3]triazolo[4,5-c]pyridin-5(4H)-yl)methanone]
5.89 | 5.81 | – | C[C@@H]1c2nnn(-c3ncc(F)cn3)c2CCN1C(=O)c1cccc(C(F)(F)F)c1F (single isomer, unassigned) [Example 190, (R*)-(2-fluoro-3-(trifluoromethyl)phenyl)(1-(5-fluoropyrimidin-2-yl)-4-methyl-6,7-dihydro-1H-[1,2,3]triazolo[4,5-c]pyridin-5(4H)-yl)methanone]
5.75 | – | – | O=C(c1cccc(C(F)(F)F)c1Cl)N1CCc2c(ncn2-c2cnccn2)C1 [Example 6, (2-Chloro-3-(trifluoromethyl)phenyl)(1-(pyrazin-2-yl)-6,7-dihydro-1H-imidazo[4,5-c]pyridin-5(4H)-yl)methanone]
5.00 | – | – | O=C(OCC1c2ncn(-c3ccccc3)c2CCN1C(=O)c1cccc(C(F)(F)F)c1Cl)c1cccc(C(F)(F)F)c1Cl (stereo not drawn) [Example 36, (5-{[2-Chloro-3-(trifluoromethyl)phenyl]carbonyl}-1-phenyl-4,5,6,7-tetrahydro-1H-imidazo[4,5-c]pyridin-4-yl)methyl 2-chloro-3-(trifluoromethyl)benzoate]
6.66 | – | – | O=C(c1cccc(C(F)(F)F)c1F)N1CCc2c(nc(C(F)(F)F)n2-c2ccccc2)C1 [Example 57, 5-{[2-Fluoro-3-(trifluoromethyl)phenyl]carbonyl}-1-phenyl-2-(trifluoromethyl)-4,5,6,7-tetrahydro-1H-imidazo[4,5-c]pyridine]
5.78 | – | – | O=C(c1cccc(Cl)c1Cl)N1CCc2c(ncn2-c2ccn[nH]2)C1 [Example 60, 5-[(2,3-Dichlorophenyl)carbonyl]-1-(1H-pyrazol-5-yl)-4,5,6,7-tetrahydro-1H-imidazo[4,5-c]pyridine]
5.50 | – | – | Cn1nc(-c2ccc(F)cc2)c2c1CN(C(=O)c1cccc(Cl)c1Cl)CC2 [Example 109, 6-[(2,3-Dichlorophenyl)carbonyl]-3-(4-fluorophenyl)-1-methyl-4,5,6,7-tetrahydro-1H-pyrazolo[3,4-c]pyridine]
5.90 | – | – | O=C(c1cccc(C(F)(F)F)c1Cl)N1CCc2c(-c3ccc(F)cc3)n[nH]c2C1 [Example 110, 6-{[2-Chloro-3-(trifluoromethyl)phenyl]carbonyl}-3-(4-fluorophenyl)-4,5,6,7-tetrahydro-2H-pyrazolo[3,4-c]pyridine]
5.85 | – | – | O=C(c1cccc(C(F)(F)F)c1Cl)N1CCc2c(nnn2-c2ccccc2OCCF)C1 [Example 126, (2-Chloro-3-(trifluoromethyl)phenyl)(1-(2-(2-fluoroethoxy)phenyl)-6,7-dihydro-1H-[1,2,3]triazolo[4,5-c]pyridin-5(4H)-yl)methanone]
5.86 | – | – | O=C(c1cccc(C(F)(F)F)c1Cl)N1CCc2c(nnn2-c2cccc(F)n2)C1 [Example 135, (2-Chloro-3-(trifluoromethyl)phenyl)(1-(6-fluoropyridin-2-yl)-6,7-dihydro-1H-[1,2,3]triazolo[4,5-c]pyridin-5(4H)-yl)methanone]
4.86 | – | – | COc1ccc(-n2nnc3c2CCN(C(=O)c2cccc(C(F)(F)F)c2Cl)C3C)nc1 (stereo not drawn) [Example 145, (2-Chloro-3-(trifluoromethyl)phenyl)(1-(5-methoxypyridin-2-yl)-4-methyl-6,7-dihydro-1H-[1,2,3]triazolo[4,5-c]pyridin-5(4H)-yl)methanone]
4.87 | – | – | CC1CN(C(=O)c2cccc(Cl)c2Cl)Cc2nnn(-c3ccccc3)c21 (stereo not drawn) [Example 244, (2,3-Dichlorophenyl)(7-methyl-1-phenyl-6,7-dihydro-1H-[1,2,3]triazolo[4,5-c]pyridin-5(4H)-yl)methanone]
5.09 | – | – | CC1CN(C(=O)c2cccc(Cl)c2Cl)Cc2nnn(-c3ccc(F)cc3)c21 (stereo not drawn) [Example 247, (2,3-Dichlorophenyl)(1-(4-fluorophenyl)-7-methyl-6,7-dihydro-1H-[1,2,3]triazolo[4,5-c]pyridin-5(4H)-yl)methanone]
6.17 | – | – | CC1c2nnn(-c3ncco3)c2CCN1C(=O)c1cccc(C(F)(F)F)c1Cl (stereo not drawn) [Example 250]
5.91 | – | – | CC1c2ncn(-c3ccc(F)cn3)c2CCN1C(=O)c1ccc(F)c(Cl)c1Cl (stereo not drawn) [Example 261, (2,3-dichloro-4-fluorophenyl)(1-(5-fluoropyridin-2-yl)-4-methyl-6,7-dihydro-1H-imidazo[4,5-c]pyridin-5(4H)-yl)methanone]
– | 6.89 | 7.40 | CC1c2ncn(-c3ccc(F)cn3)c2CCN1C(=O)c1cccc(C(F)(F)F)c1F (stereo not drawn) [Example 262, (2-fluoro-3-(trifluoromethyl)phenyl)(1-(5-fluoropyridin-2-yl)-4-methyl-6,7-dihydro-1H-imidazo[4,5-c]pyridin-5(4H)-yl)methanone]
5.90 | – | – | Cc1c(C(=O)N2CCc3c(ncn3-c3ccc(F)cn3)C2C)cccc1C(F)(F)F (stereo not drawn) [Example 263, (1-(5-fluoropyridin-2-yl)-4-methyl-6,7-dihydro-1H-imidazo[4,5-c]pyridin-5(4H)-yl)(2-methyl-3-(trifluoromethyl)phenyl)methanone]
– | 7.88 | 7.70 | Cc1ccnc(-n2nnc3c2CCN(C(=O)c2cccc(C(F)(F)F)c2F)C3C)n1 (stereo not drawn) [Example 269, (2-fluoro-3-(trifluoromethyl)phenyl)(4-methyl-1-(4-methylpyrimidin-2-yl)-6,7-dihydro-1H-[1,2,3]triazolo[4,5-c]pyridin-5(4H)-yl)methanone]
– | 7.02 | 7.63 | O=C(c1ccc(Cl)cc1Cl)N1CCc2c(nnn2-c2cnccn2)C1 [Example 277, (2,4-dichlorophenyl)(1-(pyrazin-2-yl)-6,7-dihydro-1H-[1,2,3]triazolo[4,5-c]pyridin-5(4H)-yl)methanone]
– | 8.54 | 7.80 | Cc1c(C(=O)N2CCc3c(nnn3-c3ncccn3)C2C)cccc1C(F)(F)F (stereo not drawn) [Example 282, (4-methyl-1-(pyrimidin-2-yl)-6,7-dihydro-1H-[1,2,3]triazolo[4,5-c]pyridin-5(4H)-yl)(2-methyl-3-(trifluoromethyl)phenyl)methanone]
– | 6.75 | 7.36 | CCCOc1cccnc1-n1nnc2c1CCN(C(=O)c1cccc(C(F)(F)F)c1Cl)C2C (stereo not drawn) [Example 293, (2-chloro-3-(trifluoromethyl)phenyl)(4-methyl-1-(3-propoxypyridin-2-yl)-6,7-dihydro-1H-[1,2,3]triazolo[4,5-c]pyridin-5(4H)-yl)methanone]
7.90 | – | – | Cc1ccnc(-n2nnc3c2CCN(C(=O)c2cccc(C(F)(F)F)c2Cl)C3C)c1 (stereo not drawn) [Example 299, (2-chloro-3-(trifluoromethyl)phenyl)(4-methyl-1-(4-methylpyridin-2-yl)-6,7-dihydro-1H-[1,2,3]triazolo[4,5-c]pyridin-5(4H)-yl)methanone]
– | 7.11 | 7.00 | Cc1ccc(-n2nnc3c2CCN(C(=O)c2cccc(C(F)(F)F)c2Cl)C3C)nc1 (stereo not drawn) [Example 301, (2-chloro-3-(trifluoromethyl)phenyl)(4-methyl-1-(5-methylpyridin-2-yl)-6,7-dihydro-1H-[1,2,3]triazolo[4,5-c]pyridin-5(4H)-yl)methanone]
5.06 | – | – | Cc1c(C(=O)N2CCc3c(ncn3-c3ccc(F)cn3)C2)cccc1C(F)(F)F [Example 312, (1-(5-fluoropyridin-2-yl)-6,7-dihydro-1H-imidazo[4,5-c]pyridin-5(4H)-yl)(2-methyl-3-(trifluoromethyl)phenyl)methanone]
4.61 | – | – | O=C(c1ccc(Cl)cc1Cl)N1CCc2c(ncn2-c2ccc(F)cn2)C1 [Example 313, (2,4-dichlorophenyl)(1-(5-fluoropyridin-2-yl)-6,7-dihydro-1H-imidazo[4,5-c]pyridin-5(4H)-yl)methanone]
5.37 | – | – | Cc1nc2c(n1-c1ccccc1)CCN(C(=O)c1cccc(Cl)c1Cl)C2 [Example 331, (2,3-dichlorophenyl)(2-methyl-1-phenyl-6,7-dihydro-1H-imidazo[4,5-c]pyridin-5(4H)-yl)methanone]

SMILES | pIC50 (rat P2X7) | pIC50 (P2X7 [1]) | pKi (P2X7 [2])
CC1c2ncn(-c3ccc(F)cn3)c2C=CN1C(=O)c1cccc(C(F)(F)F)c1Cl (stereo not drawn) [Example 321, (2-chloro-3-(trifluoromethyl)phenyl)(1-(5-fluoropyridin-2-yl)-4-methyl-1H-imidazo[4,5-c]pyridin-5(4H)-yl)methanone] | – | 7.43 | 7.00
